Tests used:
[1] = target: ataxia telangiectasia and Rad3-related (ATR) (Homo sapiens, UniProt Q13535); experiment: in vitro kinase assay, dose-response
[2] = target: cyclin-dependent kinase 9 (CDK9) (Homo sapiens, UniProt P50750); experiment: in vitro kinase assay, dose-response

Protein sequences, listed by entry. Tags and fused reporters are not part of them.
UniProt Q13535, whole entry: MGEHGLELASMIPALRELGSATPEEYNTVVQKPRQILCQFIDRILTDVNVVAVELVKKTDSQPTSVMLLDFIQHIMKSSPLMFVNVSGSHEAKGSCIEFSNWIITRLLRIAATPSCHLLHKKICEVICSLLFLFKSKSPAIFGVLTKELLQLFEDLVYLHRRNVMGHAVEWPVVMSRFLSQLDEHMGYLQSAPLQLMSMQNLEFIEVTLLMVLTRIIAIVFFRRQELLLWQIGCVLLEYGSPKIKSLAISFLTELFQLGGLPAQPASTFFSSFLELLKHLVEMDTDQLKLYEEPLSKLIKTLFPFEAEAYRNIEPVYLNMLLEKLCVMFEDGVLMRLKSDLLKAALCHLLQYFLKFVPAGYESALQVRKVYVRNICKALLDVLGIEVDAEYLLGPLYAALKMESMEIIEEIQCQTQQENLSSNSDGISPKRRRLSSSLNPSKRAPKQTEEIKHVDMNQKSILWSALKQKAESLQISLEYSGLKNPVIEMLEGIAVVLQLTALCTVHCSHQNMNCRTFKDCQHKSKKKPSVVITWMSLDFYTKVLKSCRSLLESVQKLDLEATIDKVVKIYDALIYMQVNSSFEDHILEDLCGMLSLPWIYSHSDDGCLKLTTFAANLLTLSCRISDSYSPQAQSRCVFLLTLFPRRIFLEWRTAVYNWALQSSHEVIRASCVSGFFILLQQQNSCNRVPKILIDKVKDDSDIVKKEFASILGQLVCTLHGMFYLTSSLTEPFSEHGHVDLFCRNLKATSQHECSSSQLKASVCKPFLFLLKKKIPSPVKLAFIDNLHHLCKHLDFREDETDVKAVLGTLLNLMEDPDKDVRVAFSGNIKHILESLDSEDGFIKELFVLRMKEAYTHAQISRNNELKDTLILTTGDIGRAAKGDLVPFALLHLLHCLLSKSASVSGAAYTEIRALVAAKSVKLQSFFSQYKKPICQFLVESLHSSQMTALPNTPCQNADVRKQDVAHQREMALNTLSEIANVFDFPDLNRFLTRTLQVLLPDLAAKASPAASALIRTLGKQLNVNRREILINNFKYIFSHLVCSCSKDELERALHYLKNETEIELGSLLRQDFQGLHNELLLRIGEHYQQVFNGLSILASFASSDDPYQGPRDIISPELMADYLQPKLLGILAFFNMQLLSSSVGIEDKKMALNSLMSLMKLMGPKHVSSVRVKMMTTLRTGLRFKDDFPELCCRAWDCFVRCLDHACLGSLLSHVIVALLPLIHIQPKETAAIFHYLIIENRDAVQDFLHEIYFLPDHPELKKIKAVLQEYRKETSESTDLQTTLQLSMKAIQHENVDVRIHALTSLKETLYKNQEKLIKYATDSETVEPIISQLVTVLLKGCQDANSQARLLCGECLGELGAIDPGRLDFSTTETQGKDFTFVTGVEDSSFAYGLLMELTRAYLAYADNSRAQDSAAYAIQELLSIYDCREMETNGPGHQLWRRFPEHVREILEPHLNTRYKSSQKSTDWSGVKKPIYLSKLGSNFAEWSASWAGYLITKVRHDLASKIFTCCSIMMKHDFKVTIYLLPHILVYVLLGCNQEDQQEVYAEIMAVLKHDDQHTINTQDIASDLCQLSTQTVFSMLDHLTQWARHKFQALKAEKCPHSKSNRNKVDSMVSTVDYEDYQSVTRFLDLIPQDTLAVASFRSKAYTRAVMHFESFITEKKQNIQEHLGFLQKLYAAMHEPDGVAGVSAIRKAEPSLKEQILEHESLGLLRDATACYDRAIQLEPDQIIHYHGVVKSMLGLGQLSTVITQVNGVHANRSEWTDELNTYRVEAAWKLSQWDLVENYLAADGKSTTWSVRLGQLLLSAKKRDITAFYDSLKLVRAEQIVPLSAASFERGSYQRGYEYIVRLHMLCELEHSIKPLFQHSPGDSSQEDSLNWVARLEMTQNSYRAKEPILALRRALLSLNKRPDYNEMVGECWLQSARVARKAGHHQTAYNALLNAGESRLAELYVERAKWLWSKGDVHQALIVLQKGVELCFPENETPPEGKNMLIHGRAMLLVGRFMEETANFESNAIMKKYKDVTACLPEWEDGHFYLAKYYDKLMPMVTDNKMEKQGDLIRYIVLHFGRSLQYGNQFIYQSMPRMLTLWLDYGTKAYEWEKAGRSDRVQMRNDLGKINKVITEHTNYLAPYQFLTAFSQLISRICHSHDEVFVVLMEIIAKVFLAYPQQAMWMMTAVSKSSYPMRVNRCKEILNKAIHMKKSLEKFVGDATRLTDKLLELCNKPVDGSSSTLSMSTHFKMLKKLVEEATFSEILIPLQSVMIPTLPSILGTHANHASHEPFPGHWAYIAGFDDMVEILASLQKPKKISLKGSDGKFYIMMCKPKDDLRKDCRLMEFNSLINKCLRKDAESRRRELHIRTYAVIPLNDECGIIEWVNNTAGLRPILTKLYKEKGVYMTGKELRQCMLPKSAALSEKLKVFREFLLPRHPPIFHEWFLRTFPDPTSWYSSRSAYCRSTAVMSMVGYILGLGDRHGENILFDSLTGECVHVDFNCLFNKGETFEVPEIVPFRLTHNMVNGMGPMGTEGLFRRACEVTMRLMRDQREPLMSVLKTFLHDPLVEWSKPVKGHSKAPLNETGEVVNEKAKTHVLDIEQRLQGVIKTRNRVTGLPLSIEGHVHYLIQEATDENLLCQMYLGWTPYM
UniProt P50750, whole entry: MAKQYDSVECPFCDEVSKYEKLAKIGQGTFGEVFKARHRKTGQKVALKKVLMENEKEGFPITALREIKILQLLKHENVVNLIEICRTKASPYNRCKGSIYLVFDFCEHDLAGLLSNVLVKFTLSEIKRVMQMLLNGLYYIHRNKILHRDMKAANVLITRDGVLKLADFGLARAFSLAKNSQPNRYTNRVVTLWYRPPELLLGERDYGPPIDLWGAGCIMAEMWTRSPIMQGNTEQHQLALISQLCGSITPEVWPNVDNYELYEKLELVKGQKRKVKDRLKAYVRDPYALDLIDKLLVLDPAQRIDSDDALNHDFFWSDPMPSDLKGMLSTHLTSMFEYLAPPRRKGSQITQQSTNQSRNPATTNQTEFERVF

SMILES | IC50 [1] | IC50 [2]
CC(O)c1cccc(-c2cc(N3CCOCC3)cc(-c3ccnc4[nH]ccc34)n2)c1 (racemic) | 235 nM | –
Fc1ccccc1-c1ccnc2[nH]c(-c3ccc(Oc4ccccc4)cc3)cc12 | – | 117 nM

Reference: article PMC12009711
